Measurements taken from article PMC8541911 (Molecular cell, 2021).

By UniProt entry, the sequences of proteins in these tests, tags left out.
UniProt P35372, whole entry: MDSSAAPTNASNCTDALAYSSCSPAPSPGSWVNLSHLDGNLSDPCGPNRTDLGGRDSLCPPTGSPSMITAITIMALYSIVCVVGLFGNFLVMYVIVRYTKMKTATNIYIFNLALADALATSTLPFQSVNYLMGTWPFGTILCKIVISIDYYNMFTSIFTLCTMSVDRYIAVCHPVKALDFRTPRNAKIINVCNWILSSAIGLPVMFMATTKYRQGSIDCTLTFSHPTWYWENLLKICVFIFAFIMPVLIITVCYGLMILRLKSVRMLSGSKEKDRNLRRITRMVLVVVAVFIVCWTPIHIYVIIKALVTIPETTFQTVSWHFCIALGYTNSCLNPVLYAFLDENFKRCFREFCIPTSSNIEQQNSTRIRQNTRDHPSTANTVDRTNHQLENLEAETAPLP

Key:
Type in all cases: cell-based
[1] = biological target: T1, human μOR receptor fused to YFP (Homo sapiens, UniProt P35372)
[2] = biological target: T1, human μOR receptor fused to YFP; remark: listed apart in the source
SNAP-μOR receptor = SNAP-μOR receptor (Homo sapiens, UniProt P35372)

[D-Ala^2, N-Me-Phe^4, Gly^5-ol]-Enkephalin acetate salt [DAMGO]
comparable efficacies: Recruitment of GRK2/5 (response) [1] | Recruitment of β-arrestin-1/2 (response) [2] | μOR internalization (response) (SNAP-μOR receptor)
